Source: patent publication US5973188A (priority 1993, dated 1999)

System: ADP-induced aggregation of platelets in human PRP
Details: oral administration to mice; mouse plasma (1 part) mixed with human PRP (3 parts); extrapolated from plasma volume IC50

## CCOC(=O)COc1ccc(C(=O)[C@H](C)NC(=O)c2ccc(C(=N)NP(=O)(OCC)OCC)cc2)cc1
  ID50 (dose administered orally that inhibits by 50% the ADP-induced ex vivo aggregation of platelets in human PRP): 3.9 mg/kg
